Target: T1, α4β1 integrin (Homo sapiens, UniProt P05556+P13612)
T1 construct: Jurkat™ cells (maintained in log phase growth) were labeled with Calcein AM; endogenous in cells; host or cells: Jurkat cells
Assay: α4β1 Integrin Adhesion Assay: Jurkat Cell Adhesion to Human Plasma Fibronectin
Format: cell-based
Conditions: Jurkat cells
Procedure: 96 well plates (Costar 3590 EIA plates) were coated with human fibronectin (Gibco/BRL, cat #33016–023) at a concentration of 10 μg/mL overnight at 4° C. The plates were then blocked with a solution of bovine serum albumin (BSA; 0.3%) in saline. Jurkat™ cells (maintained in log phase growth) were labeled with Calcein AM according to the manufacturer's instructions, and suspended at a concentration of 2×10^6 cells/mL in Hepes/Saline/BSA. The cells were then exposed to test and control compounds for 30 minutes at room temperature before transfer to individual wells of the fibronectin coated plate. Adhesion was allowed to occur for 35 minutes at 37° C. The wells were then washed by gentle aspiration and pipetting with fresh saline. Fluorescence associated with the remaining adherent cells was quantified using a fluorescence plate reader at EX 485/EM 530. […]
The cell staining was accomplished by first harvesting the log-phase Jurkat™ cells by centrifugation in 50 mL tubes (1100 rpm for 5 minutes). […] The volume was brought to 50 mL with Hepes/Saline buffer and the cells were counted, spun, and resuspend to 2×10^6 cells/mL in Hepes/Saline buffer or human serum. […]
Fibronectin adhesion was measured using a fluorescent plate reader at EX 485/EM 530 after the following work up procedure. […]

Chains of the proteins cited; added tags and fusions are not shown. Residues count along the entry.
UniProt P13612, 34-1032: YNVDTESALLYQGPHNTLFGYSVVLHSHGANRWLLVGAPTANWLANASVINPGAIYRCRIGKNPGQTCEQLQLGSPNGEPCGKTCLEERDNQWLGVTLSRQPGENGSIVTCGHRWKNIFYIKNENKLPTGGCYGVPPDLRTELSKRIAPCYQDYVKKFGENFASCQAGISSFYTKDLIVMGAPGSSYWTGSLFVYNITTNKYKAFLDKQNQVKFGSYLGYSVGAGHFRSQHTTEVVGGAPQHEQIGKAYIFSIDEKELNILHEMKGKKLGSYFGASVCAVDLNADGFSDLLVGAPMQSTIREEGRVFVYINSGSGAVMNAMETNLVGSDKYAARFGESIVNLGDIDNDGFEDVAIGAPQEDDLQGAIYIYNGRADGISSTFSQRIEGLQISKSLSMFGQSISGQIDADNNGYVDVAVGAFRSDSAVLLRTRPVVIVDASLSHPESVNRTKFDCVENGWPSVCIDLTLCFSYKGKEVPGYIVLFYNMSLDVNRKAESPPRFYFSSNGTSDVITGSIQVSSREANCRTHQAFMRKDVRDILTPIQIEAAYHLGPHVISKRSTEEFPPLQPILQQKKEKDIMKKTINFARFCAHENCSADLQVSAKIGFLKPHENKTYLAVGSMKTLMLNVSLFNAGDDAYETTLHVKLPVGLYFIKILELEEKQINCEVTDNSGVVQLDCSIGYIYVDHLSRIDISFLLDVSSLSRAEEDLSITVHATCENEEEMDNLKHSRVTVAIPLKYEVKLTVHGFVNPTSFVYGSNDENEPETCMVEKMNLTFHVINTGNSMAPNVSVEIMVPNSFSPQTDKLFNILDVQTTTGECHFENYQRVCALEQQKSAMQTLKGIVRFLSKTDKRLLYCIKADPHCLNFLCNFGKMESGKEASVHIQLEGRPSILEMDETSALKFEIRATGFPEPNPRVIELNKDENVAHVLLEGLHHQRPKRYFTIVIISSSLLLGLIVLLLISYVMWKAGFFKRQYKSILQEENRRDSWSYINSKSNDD

C#CCN(c1cnc(N(CC)CC)nc1N[C@@H](Cc1ccc(OC(=O)N2CCCC2)cc1)C(=O)O)S(=O)(=O)c1ccc(F)cc1 [Example 15, N-(2-[N′,N′-diethylamino]-5-[N″-(4-fluorophenylsulfonyl)-N″-propargylamino]pyrimidin-4-yl)-4′-(pyrrolidin-1-ylcarbonyloxy)-L-phenylalanine]
IC50 (containing human serum): 1730 nM
IC50 (without the human serum): 98.6 nM

From patent US7026328B2, “Heterocyclic compounds which inhibit leukocyte adhesion mediated by α4 integrins” (Elan Pharmaceuticals, Inc., priority 2002, dated 2006)
